The text below walks through data of patent US20230302140A1, “CONJUGATE OF A SINGLE DOMAIN ANTIBODY, A SAPONIN AND AN EFFECTOR MOLECULE, PHARMACEUTICAL COMPOSITION COMPRISING THE SAME, THERAPEUTIC USE OF SAID PHARMACEUTICAL COMPOSITION” (SAPREME TECHNOLOGIES B.V., priority 2020, published 2023).

Entries after “also recorded” stand apart in the source; their conditions may differ. Bounds are passed on as bounds.

Series [1] deals with HSP27 mRNA in A2058 cells (EGFR-). In words: HSP27 gene silencing in cancer cells. It is filed as cell-based, human.
Another series deals with SK-BR-3 cells. Description: Cell killing (MTS cell viability) assay. It is filed as cell-based, human.
The next series has as its system MDA-MB-468 cells. In words: Cell killing (MTS cell viability) assay. It is filed as cell-based, human.
A further series relates to A431 cells. In words: Cell killing (MTS cell viability) assay. It is filed as cell-based, human.
A further series relates to A2058 cells. In words: Cell killing (MTS cell viability) assay. It is filed as cell-based, human.
For series [2] the following is noted: monkeys; DM1 conjugated to trastuzumab versus unconjugated; cited from earlier work.
A further series has as its system HeLa cells. In words: Cell killing (MTS cell viability) assay. It is filed as cell-based, human. As to conditions: +50 pM trastuzumab-saporin (fixed); Ex.9/Table A6: calculated on concentration SO1861.
In series [3] the test system is HSP27 mRNA in A431 tumors. Description: A431 xenograph mouse tumor model, HSP27 gene expression in tumors. It is filed as in vivo. As to conditions: 1 dosing 30 mg/kg, tumors collected 72 h after first dosing.
In another series the test system is A431 tumor. In words: A431 xenograph mouse tumor model, tumor volume. It is filed as in vivo. As to conditions: for outcome (death/euthanasia or survival) / tumor size (volume): Balb/c nude mice, sub-optimal ADC dose; for outcome (death/euthanasia or survival): A431 xenograft; for tumor size (volume): start at 170-180 mm^3.
The mark [4] stands for this setting: +50 pM bivalentVHH-EGFR-dianthin (fixed).
Setting [5] is: +50 pM trastuzumab-saporin (fixed), Ex.8-9/Table A6: calculated on concentration SO1861.

“Cetuximab-(Cys-L-SO1861)^3,8(Lys-L-HSP27BNA)^3,8: cetuximab with labile SO1861 and labile HSP27BNA oligonucleotide”: the IC50 in series [1] is over 100 nM.
Turning to “Cetuximab-SO1861 (DAR4): cetuximab conjugated to SO1861-EMCH, DAR4”, the IC50 in the series with SK-BR-3 cells (setting [4]) was 200 nM; with MDA-MB-468 cells (setting [4]), 0.5 nM; in the series with A431 cells (setting [4]), 4 nM; with A2058 cells (setting [4]), 400 nM.
Take “T-DM1: Trastuzumab-emtansine carrying ~3.5 DM1 toxin molecules per antibody”: in series [2], the “enhancement of the tolerable dose of DM1” value is reported as “at least two-fold”.
For “cetuximab-(Cys-L-SO1861)^3,7: SO1861-EMCH conjugated via cysteine residues to cetuximab, DAR 3,7”, the IC50 with A431 cells (setting [5]) is 3 nM; with A2058 cells (+50 pM trastuzumab-saporin (fixed), Ex.9/Table A6: calculated on concentration SO1861), over 400 nM; with HeLa cells it was 400 nM. The IC50 cell killing entry with A431 cells (titrated alone) is on record as “could not induce any cell killing activity”.
With “cetuximab-(Cys-L-SO1861)^3,9(Lys-L-HSP27BNA)^1,8: cetuximab with SO1861-EMCH (DAR 3,9) and antisense HSP27BNA (DAR 1,8)”, in series [3], the “reduction in HSP27 mRNA expression in the tumors compared to single dosing of the mono therapies” value came to 40% and the “reduction of HSP27 gene expression compared to vehicle control tumors” value is 25%.
As to “cetuximab-Cys-(SO1861-L-trifunctional linker-L-HSP27BNA)^3,7: SO1861-L-trifunctional linker-L-HSP27BNA conjugated to cysteine residues of cetuximab”, the IC50 in series [1] worked out at 100 nM. Further, in [3], the “reduction in HSP27 mRNA expression in the tumors compared to single dosing of the mono therapies” value turned out to be 40% and the “reduction of HSP27 gene expression compared to vehicle control tumors” value was found to be 25%.
On to “cetuximab-SO1861: cetuximab conjugated to saponin SO1861 via cleavable hydrazone linker, DAR 3.7”, for which the IC50 is 6 nM in the series on MDA-MB-468 cells (+10 pM EGF-dianthin (fixed), Table A6: calculated on concentration SO1861); 3 nM in the series on MDA-MB-468 cells (+10 pM cetuximab-saporin (fixed), Table A6: calculated on concentration SO1861); 18 nM in the series with MDA-MB-468 cells (+50 pM trastuzumab-saporin (fixed), Table A6: calculated on concentration SO1861); 8 nM with A431 cells (+10 pM EGF-dianthin (fixed), calculated on concentration SO1861); 5 nM in the series on A431 cells (+10 pM cetuximab-saporin (fixed), calculated on concentration SO1861); 12 nM in the series with A431 cells (setting [5]). In addition, the “outcome (death/euthanasia or survival)” value in the series on A431 tumor is given as “death/euthanasia”. Besides, the “tumor size (volume)” value in the series on A431 tumor stood at 2000 mm^3.
As to “cetuximab: monoclonal antibody recognizing and binding human EGFR [reference compound]”, the IC50 cell killing entry with A431 cells (setting [5]) is recorded as “could not induce any cell killing activity”. For the same substance, the IC50 cell killing result with A431 cells (titrated alone) is reported as “could not induce any cell killing activity”. Besides, in the series with A2058 cells (titrated alone), the IC50 was over 3 nM. In the series with A431 tumor (25 mg/kg cetuximab-(Cys-L-SO1861)^4 i.p. + 0.03 mg/kg toxin conjugate i.v., day 9, 14, then weekly, cetuximab as positive control), the “tumor volume versus controls” value was “only tumor growth inhibition, but no regression”. In the series on A431 tumor, the “outcome (death/euthanasia or survival)” value is recorded as “death/euthanasia” and the “tumor size (volume)” value is on record as > 170 mm^3, but < 2000 mm^3.
In the case of “trastuzumab-(Cys-L-SO1861)^4: SO1861-EMCH conjugated via cysteine residues to trastuzumab, DAR 4”, the IC50 cell killing result with SK-BR-3 cells (titrated alone) is given as “could not induce any cell killing activity”. In addition, the IC50 with MDA-MB-468 cells (+1.5 pM EGF-dianthin (fixed), Table A6: calculated on concentration SO1861) is over 1000 nM.
As to trastuzumab-(L-SO1861)^3′^8, the IC50 cell killing result in the series with SK-BR-3 cells (titrated alone) is “not observed”.
In the case of “trastuzumab-SO1861 (DAR4): trastuzumab conjugated to SO1861-EMCH, DAR4”, the IC50 in the series on MDA-MB-468 cells (setting [4]), in the series with A431 cells (setting [4]) and with A2058 cells (setting [4]) was 400 nM each time.
“trastuzumab: monoclonal antibody recognizing and binding human HER2”: the IC50 cell killing entry was “could not induce any cell killing activity” in the series with SK-BR-3 cells (+1.5 pM EGF-dianthin (fixed), Ex.9/Table A6: calculated on concentration SO1861); “could not induce any cell killing activity” in the series on SK-BR-3 cells (+5 pM cetuximab-saporin (fixed)); “not observed; also recorded: could not induce any cell killing activity” in the series on SK-BR-3 cells (titrated alone).

A word on the IC50: it is the concentration needed to halve the response being measured.
